Literature values as cited in paper PMC3005221 (Biochemistry, 2010).

Target: Ubp-M BUZ domain (Homo sapiens, UniProt Q9Y5T5)
Conditions: read-out: KD for Ubp-M BUZ domain (previously reported); earlier studies

Kd: 6.5 µM
Substance: ubiquitin
